pIC50: −log10 of the molar value.
Assays:
ERβ = ERβ (Homo sapiens, UniProt Q92731); assay: Competition with [3H]-17β-estradiol for ERβ ligand binding domain
ERα = ERα (Homo sapiens, UniProt P03372); assay: Competition with [3H]-17β-estradiol for ERα ligand binding domain; settings: read-out: ERα IC50; crude E. coli lysate expressing human ERα LBD (D, E, & F); 2 nM [3H]-17β-estradiol; 5-15 hours at room temperature

Sequences of proteins named here, by UniProt entry; tags and fusion partners are left off. Residues count along the entry.
UniProt Q92731, 264-498 limits assumed: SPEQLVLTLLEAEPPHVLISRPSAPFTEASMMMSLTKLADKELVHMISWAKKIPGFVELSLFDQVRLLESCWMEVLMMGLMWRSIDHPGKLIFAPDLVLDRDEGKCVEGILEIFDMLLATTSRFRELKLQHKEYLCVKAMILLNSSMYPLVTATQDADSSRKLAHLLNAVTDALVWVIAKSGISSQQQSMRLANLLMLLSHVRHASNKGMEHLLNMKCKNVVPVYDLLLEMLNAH
UniProt P03372, 311-547 limits assumed: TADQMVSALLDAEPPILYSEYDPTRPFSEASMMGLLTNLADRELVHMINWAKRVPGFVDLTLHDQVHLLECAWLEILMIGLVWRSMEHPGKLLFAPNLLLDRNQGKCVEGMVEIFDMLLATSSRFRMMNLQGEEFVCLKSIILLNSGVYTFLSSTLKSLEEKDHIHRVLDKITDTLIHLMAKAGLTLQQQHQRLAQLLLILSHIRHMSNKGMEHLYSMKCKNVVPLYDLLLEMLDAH

- pIC50 (ERβ; read-out: ERβ IC50, crude E. coli lysate expressing human ERβ LBD (D, E, & F), 2 nM [3H]-17β-estradiol, 5-15 hours at room temperature): 7.77
- α/β (ERβ; receptor selectivity, ratio ERα IC50 / ERβ IC50): 32
- pIC50 (ERα): 6.26
Structure (SMILES): N#Cc1cc(O)cc2ccc(-c3ccc(O)c(F)c3)nc12

From patent US7632845B2, “Phenyl quinolines and their use as estrogenic agents” (Wyeth, priority 2003, dated 2009)
